Test results reported in patent US20260382603A1, “CHECKPOINT KINASE 1 (CHK1) INHIBITORS COMBINATIONS AND USES THEREOF” (published 2026).

By UniProt entry, the sequences of proteins in these tests, tags left out.
UniProt O14757, whole entry: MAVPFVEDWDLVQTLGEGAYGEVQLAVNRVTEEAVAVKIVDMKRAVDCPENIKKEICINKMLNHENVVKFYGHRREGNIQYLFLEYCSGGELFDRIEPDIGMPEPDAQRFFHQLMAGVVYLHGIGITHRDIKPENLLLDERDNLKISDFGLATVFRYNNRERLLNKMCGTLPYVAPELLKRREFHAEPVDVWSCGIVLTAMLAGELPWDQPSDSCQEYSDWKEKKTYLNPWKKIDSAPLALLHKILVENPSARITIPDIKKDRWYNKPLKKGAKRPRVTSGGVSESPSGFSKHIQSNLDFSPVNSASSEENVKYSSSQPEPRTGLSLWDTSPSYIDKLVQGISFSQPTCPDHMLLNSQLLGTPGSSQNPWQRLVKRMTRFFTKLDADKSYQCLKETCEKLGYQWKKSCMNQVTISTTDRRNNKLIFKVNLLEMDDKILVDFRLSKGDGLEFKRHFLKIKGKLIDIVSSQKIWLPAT

These molecules were tested against Full-length human CHK1 protein (Homo sapiens, UniProt O14757) (assay: Kinase HTRF Biochemical Assay (HTRF KinEASE), Chk1 enzyme activity). Settings: read-out: Chk1 Enzyme Activity; ATP 1 mM; STK substrate 1-biotin 120 nM; 60 min, room temperature.

IC50 | Molecule
1 to 10 nM | N#Cc1cnc(Nc2cc(-c3ncccc3O[C@@H]3CC[C@@H](N)C3)[nH]n2)cn1
1 to 10 nM | rac-5-((5-(4-((-3-aminocycloheptyl)oxy)-6-cyclopropyl-2-methoxypyridin-3-yl)-1H-pyrazol-3-yl)amino)pyrazine-2-carbonitrile
1 to 10 nM | CCCc1ccc(O[C@@H]2CC[C@H](N)C2)c(-c2cc(Nc3cnc(C#N)cn3)n[nH]2)n1

The remaining lines, values behind:

Molecule | IC50
CN[C@@H]1CC[C@@H](Oc2ccc(C)nc2-c2cc(Nc3cnc(C#N)cn3)n[nH]2)C1 | 1 to 10 nM
5-((5-(4-(((1R,3R)-3-aminocyclopentyl)oxy)pyridin-3-yl)-1H-pyrazol-3-yl)amino)pyrazine-2-carbonitrile | 10 to 100 nM
5-((5-(4-(((1R,3S)-3-aminocyclopentyl)oxy)pyridin-3-yl)-1H-pyrazol-3-yl)amino)pyrazine-2-carbonitrile | 100 to 500 nM
Cc1ccc(O[C@@H]2CC[C@H](N)C2)c(-c2cc(Nc3cnc(C#N)cn3)n[nH]2)n1 | 1 to 10 nM
Cc1ccc(O[C@H]2CC[C@H](N)CC2)c(-c2cc(Nc3cnc(C#N)cn3)n[nH]2)n1 | 1 to 10 nM
Cc1ccc(O[C@@H]2CC[C@@H](N)C2)c(-c2cc(Nc3cnc(C#N)cn3)n[nH]2)n1 | < 1 nM
N#Cc1cnc(Nc2cc(-c3nc(C4CC4)ccc3O[C@@H]3CC[C@H](N)C3)[nH]n2)cn1 | 1 to 10 nM
Cc1cc(O[C@@H]2CC[C@H](N)C2)c(-c2cc(Nc3cnc(C#N)cn3)n[nH]2)nc1C | 1 to 10 nM
N#Cc1cnc(Nc2cc(-c3nc(C(F)F)ccc3O[C@@H]3CC[C@H](N)C3)[nH]n2)cn1 | 1 to 10 nM
CC(C)c1ccc(O[C@@H]2CC[C@H](N)C2)c(-c2cc(Nc3cnc(C#N)cn3)n[nH]2)n1 | 1 to 10 nM

The molecules below were run on ecDNA+ FGFR2 amplified gastric cancer SNU-16 CDX (assay: In vivo anti-tumor activity, SNU-16 CDX model). Settings: SNU-16 CDX tumors in vivo; prolonged treatment.

Molecule | acquired resistance | period of tumor cell stasis
CCN1CCN(c2ccc(Nc3cc(N(C)C(=O)Nc4c(Cl)c(OC)cc(OC)c4Cl)ncn3)cc2)CC1 | acquired resistance to infigratinib treatment occurred | 1-2 weeks

Each molecule was assayed on SNU-16 tumor cells (FGFR2 copy number on ecDNA) (assay: Suppression of ecDNA amplification, prolonged treatment of SNU-16 tumor cells in vitro). Settings: SNU-16 tumor cells.

Molecule | FGFR2 copy number on ecDNA
CCN1CCN(c2ccc(Nc3cc(N(C)C(=O)Nc4c(Cl)c(OC)cc(OC)c4Cl)ncn3)cc2)CC1 | increased amplification of FGFR2 (copy number) on ecDNA

Same assay, conditions: SNU-16 tumor cells in vitro

Molecule | acquired resistance | period of tumor cell stasis
CCN1CCN(c2ccc(Nc3cc(N(C)C(=O)Nc4c(Cl)c(OC)cc(OC)c4Cl)ncn3)cc2)CC1 | acquired resistance to infigratinib treatment occurred | 1-2 weeks

The molecules below were run against p-CHK1 (Ser345) in HT29 cells (Homo sapiens, UniProt O14757) (assay: AlphaLISA SureFire Ultra p-CHK1 (Ser345) cellular assay in HT29 cells). Settings: read-out: AlphaLisa Cellular Activity, 16 h, 37 °C.

IC50 | Molecule
50 to 100 nM | COc1ccnc(O[C@H]2C[C@H](N)C2)c1-c1cc(Nc2cnc(C#N)cn2)n[nH]1
100 to 500 nM | COc1nccc(O[C@H]2C[C@H](N)C2)c1-c1cc(Nc2cnc(C(N)=O)cn2)n[nH]1
100 to 500 nM | COc1cncc(O[C@H]2CC[C@H](N)CC2)c1-c1cc(Nc2cnc(C#N)cn2)n[nH]1
< 50 nM | COc1nc(C2CC2)cc(O[C@H]2CC[C@@H]2N)c1-c1cc(Nc2cnc(C#N)cn2)n[nH]1
< 50 nM | CN[C@H]1CC[C@@H](Oc2nccc(OC)c2-c2cc(Nc3cnc(C#N)cn3)n[nH]2)C1
50 to 100 nM | COc1nccc(O[C@H]2CC[C@H](N)CC2)c1-c1cc(Nc2cnc(C#N)cn2)n[nH]1
< 50 nM | COc1nc(C)cc(O[C@H]2CC[C@H]2N)c1-c1cc(Nc2cnc(C#N)cn2)n[nH]1
< 50 nM | COc1nc(C)cc(O[C@@H]2CC[C@H](N(C)C)C2)c1-c1cc(Nc2cnc(C#N)cn2)n[nH]1
100 to 500 nM | COc1nc(C2CC2)cc(O[C@@H]2CC[C@H](N)C2)c1-c1cc(Nc2ccc(C#N)nc2)n[nH]1
100 to 500 nM | COc1nc(C)cc(O[C@@H]2CC[C@H](N)C2)c1-c1cc(Nc2ccc(C#N)nc2)n[nH]1
100 to 500 nM | Cc1ncc(O[C@@H]2CC[C@H](N)C2)c(-c2cc(Nc3cnc(C#N)cn3)n[nH]2)n1
< 50 nM | CN[C@H]1CC[C@H](Oc2ccnc(OC)c2-c2cc(Nc3cnc(C#N)cn3)n[nH]2)CC1
> 1000 nM | N#Cc1cnc(Nc2cc(-c3cnccc3O[C@H]3CC[C@H](N)CC3)[nH]n2)cn1
> 1000 nM | COc1cc(C)nc(O[C@@H]2CC[C@@H](N)C2)c1-c1cc(Nc2cnc(C#N)cn2)n[nH]1
500 to 1000 nM | COc1nc(C)cc(O[C@@H]2CC[C@@H]2N)c1-c1cc(Nc2cnc(C#N)cn2)n[nH]1
< 50 nM | COc1nc(C)cc(O[C@H]2CCCC[C@H](N)C2)c1-c1cc(Nc2cnc(C#N)cn2)n[nH]1
< 50 nM | COc1ccnc(O[C@@H]2CC[C@H](N)C2)c1-c1cc(Nc2cnc(C#N)cn2)n[nH]1
> 1000 nM | CN[C@H]1C[C@H](Oc2ccncc2-c2cc(Nc3cnc(C#N)cn3)n[nH]2)C1
50 to 100 nM | COc1nc(CO)cc(O[C@@H]2CC[C@H](N)C2)c1-c1cc(Nc2cnc(C#N)cn2)n[nH]1

Continued, molecule first:

Molecule | IC50
COc1nc(CC(C)C)cc(O[C@@H]2CC[C@H](N)C2)c1-c1cc(Nc2cnc(C#N)cn2)n[nH]1 | < 50 nM
COc1nccc(O[C@H]2C[C@H](N)C2)c1-c1cc(Nc2cnc(C#N)cn2)n[nH]1 | 50 to 100 nM
COc1nc(C)cc(O[C@H]2CCCC[C@H]2N)c1-c1cc(Nc2cnc(C#N)cn2)n[nH]1 | 100 to 500 nM
N#Cc1cnc(Nc2cc(-c3cnccc3O[C@H]3C[C@H](N)C3)[nH]n2)cn1 | > 1000 nM
COc1nc(C2CC2)cc(O[C@@H]2CC[C@H]2N)c1-c1cc(Nc2cnc(C#N)cn2)n[nH]1 | < 50 nM
COc1nc(C(C)C)cc(O[C@@H]2CC[C@H](N)C2)c1-c1cc(Nc2cnc(C#N)cn2)n[nH]1 | > 1000 nM
COc1nc(C)cc(O[C@@H]2CC[C@H]2N)c1-c1cc(Nc2cnc(C#N)cn2)n[nH]1 | < 50 nM
5-((5-(4-(((1R,3R)-3-aminocyclopentyl)oxy)pyridin-3-yl)-1H-pyrazol-3-yl)amino)pyrazine-2-carbonitrile | > 1000 nM
CN[C@@H]1CC[C@@H](Oc2nccc(OC)c2-c2cc(Nc3cnc(C#N)cn3)n[nH]2)C1 | 100 to 500 nM
5-((5-(4-(((1R,3S)-3-aminocyclopentyl)oxy)pyridin-3-yl)-1H-pyrazol-3-yl)amino)pyrazine-2-carbonitrile | > 1000 nM
COc1nc(C)cc(O[C@@H]2CCCC[C@H](N)C2)c1-c1cc(Nc2cnc(C#N)cn2)n[nH]1 | < 50 nM
Cc1cc(O[C@@H]2CC[C@H](N)C2)c(-c2cc(Nc3cnc(C#N)cn3)n[nH]2)c(O)n1 | > 1000 nM
COc1nc(C)cc(O[C@H]2C[C@H](N)C2)c1-c1cc(Nc2cnc(C#N)cn2)n[nH]1 | < 50 nM
COc1cc(C)nc(O[C@@H]2CC[C@H](N)C2)c1-c1cc(Nc2cnc(C#N)cn2)n[nH]1 | < 50 nM
COc1nc(C(F)F)cc(O[C@@H]2CC[C@H](N)C2)c1-c1cc(Nc2cnc(C#N)cn2)n[nH]1 | < 50 nM
CN[C@H]1CC[C@H](Oc2nccc(OC)c2-c2cc(Nc3cnc(C#N)cn3)n[nH]2)C1 | < 50 nM
COc1nc(C)cc(O[C@H]2CC[C@@H]2N)c1-c1cc(Nc2cnc(C#N)cn2)n[nH]1 | < 50 nM
COc1nc(C2CC2)cc(O[C@H]2CCCC[C@@H](N)C2)c1-c1cc(Nc2cnc(C#N)cn2)n[nH]1 | < 50 nM
COc1nc(C)cc(O[C@@H]2CCCC[C@@H]2N)c1-c1cc(Nc2cnc(C#N)cn2)n[nH]1 | 100 to 500 nM
COc1nc(C2CCC2)cc(O[C@@H]2CC[C@H](N)C2)c1-c1cc(Nc2cnc(C#N)cn2)n[nH]1 | < 50 nM
COc1nc(C2(C)CC2)cc(O[C@@H]2CC[C@H](N)C2)c1-c1cc(Nc2cnc(C#N)cn2)n[nH]1 | < 50 nM
CN[C@@H]1CC[C@@H](Oc2cc(C3CC3)nc(OC)c2-c2cc(Nc3cnc(C#N)cn3)n[nH]2)C1 | < 50 nM
COc1nc(C)cc(O[C@@H]2CC[C@H](N)C2)c1-c1cc(Nc2ccc(C#N)cn2)n[nH]1 | 100 to 500 nM
CN[C@H]1CC[C@@H](Oc2ccnc(OC)c2-c2cc(Nc3cnc(C#N)cn3)n[nH]2)C1 | < 50 nM
COc1nc(C)cc(O[C@@H]2CC[C@@H](N(C)C)C2)c1-c1cc(Nc2cnc(C#N)cn2)n[nH]1 | 50 to 100 nM
COc1nc(C)cc(O[C@H]2CC[C@H](N)CC2)c1-c1cc(Nc2cnc(C#N)cn2)n[nH]1 | 50 to 100 nM
COc1cncc(O[C@H]2C[C@H](N)C2)c1-c1cc(Nc2cnc(C#N)cn2)n[nH]1 | 100 to 500 nM
COc1cc(C)nc(O[C@@H]2CC[C@@H](N(C)C)C2)c1-c1cc(Nc2cnc(C#N)cn2)n[nH]1 | 50 to 100 nM
CN[C@H]1C[C@H](Oc2ccnc(OC)c2-c2cc(Nc3cnc(C#N)cn3)n[nH]2)C1 | < 50 nM
